Laboratory results from patent US20260062422A1 (Halda Therapeutics OpCo, Inc., priority 2022, published 2026).

Amino acid sequences for entries named in this document (tags omitted).
UniProt P10275, whole entry T878A: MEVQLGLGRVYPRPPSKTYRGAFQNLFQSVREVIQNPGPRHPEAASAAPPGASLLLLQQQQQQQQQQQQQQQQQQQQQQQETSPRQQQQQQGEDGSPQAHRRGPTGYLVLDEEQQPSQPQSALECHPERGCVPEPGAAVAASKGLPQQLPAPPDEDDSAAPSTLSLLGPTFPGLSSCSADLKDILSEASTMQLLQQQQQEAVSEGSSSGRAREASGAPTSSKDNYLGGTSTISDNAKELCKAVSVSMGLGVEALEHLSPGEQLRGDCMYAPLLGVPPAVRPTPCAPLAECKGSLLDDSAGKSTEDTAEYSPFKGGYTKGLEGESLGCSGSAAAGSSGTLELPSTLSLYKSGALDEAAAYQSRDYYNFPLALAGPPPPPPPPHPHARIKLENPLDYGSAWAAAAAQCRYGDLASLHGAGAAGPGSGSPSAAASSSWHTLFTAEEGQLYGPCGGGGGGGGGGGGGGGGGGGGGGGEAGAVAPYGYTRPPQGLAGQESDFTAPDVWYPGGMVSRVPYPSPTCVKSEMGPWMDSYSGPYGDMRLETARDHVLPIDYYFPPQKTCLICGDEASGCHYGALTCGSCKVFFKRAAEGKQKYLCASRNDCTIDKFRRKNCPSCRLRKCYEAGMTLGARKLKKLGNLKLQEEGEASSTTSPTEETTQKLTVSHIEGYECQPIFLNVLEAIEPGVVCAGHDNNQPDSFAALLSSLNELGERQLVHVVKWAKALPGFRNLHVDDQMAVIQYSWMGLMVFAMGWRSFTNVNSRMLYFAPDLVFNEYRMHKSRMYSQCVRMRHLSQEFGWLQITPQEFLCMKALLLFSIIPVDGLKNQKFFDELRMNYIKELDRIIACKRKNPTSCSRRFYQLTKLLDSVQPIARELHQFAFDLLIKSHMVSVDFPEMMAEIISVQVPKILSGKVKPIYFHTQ

Tests used:
androgen receptor = androgen receptor (Homo sapiens, UniProt P10275); assay: Assay for binding affinity to androgen receptor ([3H]methyltrienolone radioligand, cell cytosol); details: 1 nM [3H]methyltrienolone, 24 hours at 4° C., Table 5
Experimental: Fractions of cell cytosol ([…] cell/point) were incubated for 24 hours at 4° C. with 1 nM [^3H]methyltrienolone in the absence or presence of the test compound in a buffer containing 25 mM Hepes-Tris (pH 7.4), 1 mM EDTA, 10 mM Na2MoO4, 2 mM DTT, 5 μM triamcinolone acetonide, and 10% glycerol. Nonspecific binding was determined in the presence of 1 μM testosterone. Following incubation, the samples were filtered rapidly under vacuum through glass fiber filters (GF/B, Packard) presoaked with 0.3% PEI and rinsed several times with ice-cold 50 mM Tris-HCl using a 96-sample cell harvester (Unifilter, Packard). The filters were dried then counted for radioactivity in a scintillation counter (Topcount, Packard) using a scintillation cocktail (Microscint 0, Packard). The results are expressed as a percent inhibition of the control radioligand specific binding. The standard reference compound is testosterone, which is tested in each experiment at several concentrations to obtain a competition curve from which its IC50 is calculated.

[1] = system: T-Rex 293 cell line SC cells having increased expression of progesterone receptor isoform B protein due to exposure to doxycycline; assay: Cellular growth inhibition, T-Rex 293 SC cells with doxycycline (progesterone receptor isoform B induced), Example 45; details: progesterone receptor isoform B induced with 10 ng/mL doxycycline, 72 hours, CellTiter-Glo 2.0, Table 11
Experimental: (§1) The following types of cells were prepared for this experiment: (i) a T-Rex 293 cell line having increased expression of progesterone receptor isoform B protein due to exposure to doxycycline and (ii) a T-Rex 293 cell line lacking increased expression of progesterone receptor isoform B protein. Ability of the test compounds to inhibit proliferation of the foregoing cell types was evaluated according to the procedures set forth below.
(§2) The doxycycline-inducible progesterone receptor isoform B protein expressing cell line was established using the following protocol: T-Rex 293 cells were purchased from Invitrogen (Cat #R71007) and transfected using Lipofectamine 2000 with the wild-type progesterone receptor B protein sequence cloned into the pcDNA4/TO vector. […] Clones were analyzed for expression of progesterone receptor isoform B protein in the presence and absence of 10 ng/mL doxycycline (Sigma Cat #D9891), and a single doxycycline-inducible clone (hereinafter “SC”) was selected for use in downstream assays. […]
(§3) At the end of the treatment duration, cell viability was quantified with CellTiter-Glo 2.0 reagent (Promega Cat #G9243). […] Following incubation, the plates were spun at 3000×g for 30 seconds, then sealed with an optical adhesive cover, and luminescence readings were measured with an EnVision Plate Reader (Perkin Elmer).
(§4) Data was normalized using zero luminescence for baseline. […]

[2] = system: T-Rex 293 cell line SC cells lacking increased expression of progesterone receptor isoform B protein; assay: Cellular growth inhibition, T-Rex 293 SC cells without doxycycline, Example 45; details: T-Rex 293 SC cells not exposed to doxycycline, 72 hours treatment, CellTiter-Glo 2.0
Experimental: as §1, §2, §3, §4

SMILES | Kd (androgen receptor) [nM] | GI50 [1] [nM] | GI50 [2] [nM]
CCNC(=O)C[C@@H]1N=C(c2ccc(N3CC4(C3)CN(c3ncc(C(=O)N[C@H]5C(C)(C)[C@H](Oc6ccc(C#N)c(Cl)c6)C5(C)C)cn3)C4)cc2)c2c(sc(C)c2C)-n2c(C)nnc21 | < 50 |  | 
CCNC(=O)C[C@@H]1N=C(c2ccc(CC3CCN(c4ncc(C(=O)N[C@H]5C(C)(C)[C@H](Oc6ccc(C#N)c(Cl)c6)C5(C)C)cn4)CC3)cc2)c2c(sc(C)c2C)-n2c(C)nnc21 | < 50 | < 500 | 500 to 1500
